These results are taken from article PMC12467033, “Exploring the Inhibitory Potential of Six Porphyrin Compounds Against α-Amylase and α-Glucosidase Linked to Diabetes” (Biomolecules, 2025).

The data set concerns HepG2 cells. Briefly: MTT cytotoxicity assay. It is filed as cell-based, human. The conditions noted are these: 24 h. Here is the method:
The cytotoxicity of six porphyrin compounds against human hepatocellular carcinoma HepG2 cells was evaluated using the MTT assay. HepG2 cells were seeded into 96-well plates at a density of 5000 cells per well and cultured for 24 h at 37 °C in a 5% CO2 incubator. Then, 100 µL of sample solutions at various concentrations (50, 100, and 200 µg/mL) was added to the experimental wells, with blank control wells and solvent control wells also included. The cells were further incubated for 24 h. After incubation, 10 µL of MTT solution (5 mg/mL) was added to each well, and the plates were incubated for another 4 h. Subsequently, 100 µL of Formazan solubilization solution was added to each well, followed by gentle mixing. The plates were returned to the incubator and maintained until complete dissolution of Formazan crystals was observed under a microscope. The absorbance at 570 nm was measured using a microplate reader (Meigu Molecular Instrument Company, Shanghai, China), and the survival rate of HepG2 cells was calculated.(12) Cell viability=As-Ab/Ac-Ab×100%
In the formula, As represents the absorbance of the sample well, Ac denotes the absorbance of the blank control well (without the drug), and Ab refers to the absorbance of the solvent control well (devoid of both cells and the drug).

Turning to “iron (III) meso-tetra (4-carboxyphenyl) porphyrin chloride [Fe–TCPP]”, the “cytotoxicity (in words)” value (HepG2, 50 μg/mL) was “no significant harm”. Where the note is “HepG2, 100 μg/mL”, this substance registered a cell viability of 60.40 ± 5.69%. Besides, the “cell viability (survival rate)” value (HepG2, 200 μg/mL) was determined as 55.41 ± 0.93%.

As a reminder, the cell viability is a per cent measure of how many cells are alive, often set against a control. Low readings indicate more harm to the cells, high ones less harm to the cells.
